Literature values as cited in patent US20220235325A1, “STIMULATION OF DENDRITIC CELL ACTIVITY BY HOMOTAURINE AND ANALOGUES THEREOF” (Therapeutic Solutions International, Inc., priority 2021, published 2022).

System: metastatic colorectal cancer
Settings: added to a protocol of bevacizumab and chemotherapy; cited from earlier work

cetuximab: anti-epidermal growth factor receptor (EGFR) monoclonal antibody (mAb)
Survival: decreased survival
